Measurements as given in paper PMC3269786 (Neuron, 2012).

System: primary cultures of hypothalamic neurons
Assay: Fluo-4 Ca2+ mobilization in primary hypothalamic neurons
Type: cell-based, mouse

**Q.** For `CCCN1CCC[C@@H]2Cc3n[nH]cc3C[C@H]21` [quinpirole], which “Ca2+ response in primary hypothalamic neurons” value is on record?
**A.** The value was “induces rapid Ca^2+ transients”.
